Experimental findings from ChEMBL document CHEMBL3259549, “Unraveling the structure-activity relationship of tomatidine, a steroid alkaloid with unique antibiotic properties against persistent forms of Staphylococcus aureus” (2014) are described below.

The assay has as its system Staphylococcus aureus. To be noted: ATCC 29213.

As a reminder, the MIC is the lowest concentration that inhibits growth of the organism. Lower therefore signals a more susceptible organism. For GENTAMICIN, the MIC is 0.5 µg/mL.
